Assay results from patent publication US7183445B2, “Cyclohexyl derivatives as selective estrogen receptor modulators” (Janssen Pharmaceutica N.V, priority 2004, dated 2007).

Sequences of proteins named here, by UniProt entry; tags and fusion partners are left off.
UniProt Q92731, whole entry: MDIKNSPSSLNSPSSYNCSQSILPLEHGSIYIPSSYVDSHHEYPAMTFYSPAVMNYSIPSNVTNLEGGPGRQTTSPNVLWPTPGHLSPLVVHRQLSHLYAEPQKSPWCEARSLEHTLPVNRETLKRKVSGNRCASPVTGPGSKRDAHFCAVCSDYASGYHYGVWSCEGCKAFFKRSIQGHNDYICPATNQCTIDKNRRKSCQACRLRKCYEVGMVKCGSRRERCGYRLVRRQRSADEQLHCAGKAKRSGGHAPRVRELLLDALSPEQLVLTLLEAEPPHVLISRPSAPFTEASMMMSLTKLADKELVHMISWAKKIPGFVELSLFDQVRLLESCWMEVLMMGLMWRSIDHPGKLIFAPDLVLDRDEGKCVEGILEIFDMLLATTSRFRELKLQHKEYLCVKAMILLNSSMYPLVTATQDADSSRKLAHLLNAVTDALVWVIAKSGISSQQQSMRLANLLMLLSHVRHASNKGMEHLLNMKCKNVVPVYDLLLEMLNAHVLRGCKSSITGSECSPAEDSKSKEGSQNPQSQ
UniProt P03372, whole entry: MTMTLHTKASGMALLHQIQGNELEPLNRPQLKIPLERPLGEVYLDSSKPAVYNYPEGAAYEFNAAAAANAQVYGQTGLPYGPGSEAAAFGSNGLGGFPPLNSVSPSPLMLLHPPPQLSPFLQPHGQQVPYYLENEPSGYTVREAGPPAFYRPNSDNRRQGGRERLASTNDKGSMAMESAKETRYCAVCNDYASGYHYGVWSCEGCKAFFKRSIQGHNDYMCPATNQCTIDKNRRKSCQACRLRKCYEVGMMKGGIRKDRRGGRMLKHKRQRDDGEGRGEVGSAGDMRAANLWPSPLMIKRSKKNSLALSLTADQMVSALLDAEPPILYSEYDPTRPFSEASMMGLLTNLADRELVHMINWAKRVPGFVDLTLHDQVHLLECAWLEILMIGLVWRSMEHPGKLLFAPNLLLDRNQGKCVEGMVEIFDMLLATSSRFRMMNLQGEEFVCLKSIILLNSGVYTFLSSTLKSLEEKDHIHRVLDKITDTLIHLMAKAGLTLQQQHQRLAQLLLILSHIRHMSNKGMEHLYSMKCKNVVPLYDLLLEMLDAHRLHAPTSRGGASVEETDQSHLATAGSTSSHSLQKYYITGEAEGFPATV

Experiments:
hER-β = hER-β (Homo sapiens, UniProt Q92731); assay: Estrogen Receptor β Fluorescence Polarization Assay; settings: read-out: ERβ Binding IC50; displacement of Fluormone ES2, fluorescence polarization
Source text: Estrogen Receptor β Fluorescence Polarization Assay
This assay monitors binding of a fluorescent analog of estrogen (Fluormone ES2, Panvera) to the estrogen receptor. Plates are read in a fluorometer that can be set to polarization mode. A decrease in […] relative to vehicle control is an indication of binding of a compound to the receptor.
It is crucial to avoid introduction of air bubbles into the reaction in each well of the 96 well plate throughout this procedure. (Bubbles on the surface of the reaction disrupt light flow, affecting the polarization reading.) However, it is also crucial to effectively mix the reaction components upon addition to the well.
On ice, a 2× standard mixture of Assay Buffer (Panvera), 10 nM DTT and 40 nM ES2 was prepared. On ice, a 2× reaction mixture of Assay Buffer (Panvera), and 20 nM hER-β (Panvera) and 40 nM ES2 was also prepared.
Dilutions of test compound were prepared in 30% (v/v) dimethyl sulfoxide/50 mM HEPES, pH 7.5. At this point, the dilutions were 40× the final required concentration.
The standard mixture at 50 μL was then added to each well. The reaction mixture at 48 μL was added to all wells. The compound dilution at 2.5 μL was added to the appropriate wells. […]
Each well on the plate was then read in an LjL Analyst with an excitation wavelength of […] and an emission wavelength of 538. […]

MCF-7 cells = assay: MCF-7 Cell Proliferation Assay; settings: 14C-thymidine incorporation; for EC50: read-out: MCF7 Agonist EC50, agonist mode; for IC50: read-out: MCF7 Antagonist IC50, antagonist mode, 10 nM 17β-estradiol added
Procedure: MCF-7 Cell Proliferation Assay
This assay was run according to the procedure described by Welshons, et al., (Breast Cancer Res. Treat., 1987, 10(2), 169–75), with minor modification.
Briefly, MCF-7 cells (from Dr. C. Jordan, Northwestern University) were maintained in RPMI 1640 phenol red free medium (Gibco) in 10% FBS (Hyclone), supplemented with bovine insulin and non-essential amino acid (Sigma). The cells were initially treated with 4-hydroxytamoxifen (10^−8 M) and let stand at 37° C. for 24 hours. Following this incubation with tamoxifen, the cells were treated with compounds at various concentrations.
Compounds to be tested in the agonist mode were added to the culture media at varying concentrations. Compounds to be treated in the antagonist mode were prepared similarly, and 10 nM 17β-estradiol was also added to the culture media. The cells were incubated for 24 hours at 37° C. Following this incubation, 0.1 μCi of ^14C-thymidine (56mCi/mmol, Amersham) was added to the culture media and the cells were incubated for an additional 24 hours at 37° C. The cells were then washed twice with Hank's buffered salt solution (HBSS) (Gibco) and counted with a scintillation counter. The increase in the ^14C-thymidine in the compound treated cells relative to the vehicle control cells were reported as percent increase in cell proliferation.
(§1) Representative compound of the present invention were tested according to the procedure described in Examples 14 and 15 above, with results as listed in Table. 7.

[1] = test system: Human Endometrial Ishikawa Cells; assay: Alkaline Phosphatase Assay in Human Endometrial Ishikawa Cells; settings: alkaline phosphatase activity, 3 days; for EC50: read-out: Ishikawa Agonist EC50, agonist mode; for IC50: read-out: Ishikawa Antagonist IC50, antagonist mode, 10 nM 17β-estradiol added
Procedure: Alkaline Phosphatase Assay in Human Endometrial Ishikawa Cells
This assay was run according to the procedure described by Albert et a., Cancer Res, […], 50(11), 330-6-10, with minor modification.
Ishikawa cells (from ATCC) were maintained in DMEM/F12 (1:1) phenol red free medium (Gibco) supplemented with 10% calf serum (Hyclone). 24 hours prior to testing, the medium was changed to DMEM/F12 (1:1) phenol red free containing 2% calf serum.
Compounds to be tested in the agonist mode were added to the culture media at varying concentrations. Compounds to be treated in the antagonist mode were prepared similarly, and 10 nM 17β-estradiol was also added to the culture media. The cells were then incubated at 37° C. for 3 days. On the fourth day, the media was remove, 1 volume of 1× Dilution Buffer (Clontech) was added to the well followed by addition of 1 volume of Assay Buffer (Clontech). The cells were then incubated at room temperature for 5 minutes. 1 volume of freshly prepared Chemiluminescence Buffer (1 volume of chemiluminescent substrate (CSPD) in 19 volume Chemiluminescent Enhancer with final concentration of CSPD at 1.25 mM; Sigma Chemical Co.) was added. The cells were incubated at room temperature for 10 minutes and then quantified on a luminometer. The increase of chemiluminescence over vehicle control was used to calculate the increase in alkaline phosphatase activity.
as §1

[2] = target: human estrogen receptor α (Homo sapiens, UniProt P03372); assay: Estrogen Receptor α Flash Plate Assay; settings: read-out: ERα Binding IC50; displacement of radio-labeled estrogen, FlashPlate
Procedure: Estrogen Receptor α Flash Plate Assay
This assay monitors binding of radio-labeled estrogen to the estrogen receptor. It is performed on a BioMek 2000 (Beckman). Plates are read in a scintillation counter (Packard TopCount), with decreased counts an indication of binding of a compound to the receptor. The assay was run according to the procedure described by Allan, et al., Anal. Biochem. (1999), 275(2), 243–247.
On day one, 100 μL of Estrogen Screening Buffer (ESB, Panvera) containing 5 mM dithiothreitol (DTT, Panvera), 0.5 μg mouse anti-estrogen receptor monoclonal antibody (SRA-1010, Stressgen) and 50 ng purified human estrogen receptor α (Panvera) were added to each well of a 96 well FlashPlate Plus plate crosslinked with goat anti-mouse antibodies (NEN Life Sciences). The plate was sealed and incubated at 4° C. overnight.
On day two, each well was washed three times with 200 μL PBS, pH 7.2, at room temperature. To each well was then added 98 μL radio-labeled estrogen (0.5 nM, which equals 6 nCi for a 120 Ci/mmol batch, Amersham), diluted in ESB and 5 mM dithiothreitol (DTT). To individual wells were then added 2.5 μL test compound diluted in 30% (v/v) dimethyl sulfoxide/50 mM HEPES, pH 7.5. The wells were mixed three times by aspiration, the plate sealed and incubated at room temperature for one hour. The wells were then counted for 1 min in a TopCount scintillation counter (Packard). […]

IC50 (hER-β)	EC50 (MCF-7 cells)	IC50 (MCF-7 cells)	EC50 [1]	IC50 [1]	IC50 [2]	SMILES
> 10 µM	> 10 µM	> 10 µM	> 10 µM	7 µM	4.5 µM	CCOC(=O)C1CC=C(c2ccc(F)cc2)C(Cc2ccc(OCCN3CCCCC3)cc2)C1C (stereo not drawn)
> 10 µM and 8 µM	> 10 µM	5 µM	> 10 µM	2.7 µM	0.045 µM	CCOC(=O)C1CC=C(c2ccc3[nH]ccc3c2)C(Cc2ccc(OCCN3CCCCC3)cc2)C1C (stereo not drawn)

“And” between values parts separate entries of the source, which are not always exact repeats. Equal entries are not always repeated.
